Data published in patent US8227452B2, “Use of a steroid prodrug for the treatment of disease of the posterior segment of the eye” (Novagali Pharma SA, priority 2006, dated 2012).

Assay: Intraocular pharmacokinetics of dexamethasone palmitate and dexamethasone following intravitreal administration
Excerpt: Analytes and internal standard (roxithromycine) were extracted from the tissues using acetonitrile and separated by reverse phase liquid chromatography with a C8 column and a gradient mobile phase. […] The unweighed linear model was applied.

[1] = Day 1 after single intravitreal injection of 100 μL 0.8% dexamethasone palmitate emulsion, rabbits
[2] = Day 7 after single intravitreal injection of 100 μL 0.8% dexamethasone palmitate emulsion, rabbits
[3] = Day 14 after single intravitreal injection of 100 μL 0.8% dexamethasone palmitate emulsion, rabbits
[4] = Day 28 after single intravitreal injection of 100 μL 0.8% dexamethasone palmitate emulsion, rabbits
[5] = Day 60 after single intravitreal injection of 100 μL 0.8% dexamethasone palmitate emulsion, rabbits

dexamethasone palmitate [DP]
Prodrug remaining in retina and choroid (2 months following IVT injection of 800 μg of prodrug): considerable amounts
Concentration in choroid, mean [1]: 191 nmol/g
Concentration in retina, mean [1]: 106 nmol/g
Concentration in choroid, mean [2]: 103 nmol/g
Concentration in retina, mean [2]: 93 nmol/g
Concentration in choroid, mean [3]: 22 nmol/g
Concentration in retina, mean [3]: 136 nmol/g
Concentration in choroid, mean [4]: 143 nmol/g
Concentration in retina, mean [4]: 146 nmol/g
Concentration in aqueous humor, mean [5]: 0 nmol/g
Concentration in choroid, mean [5]: 52 nmol/g
Concentration in retina, mean [5]: 55 nmol/g
Release of active drug after intraocular (intravitreal) injection of the prodrug (intraocular, more especially intravitreal, injections): in-situ release of dexamethasone
